# Earlier results as cited in patent publication US20200383906A1 (Evestra, Inc., priority 2019, published 2020).
# System: SHBG
# Details: therapeutic vaginal application of 1.0 mg estriol; cited from earlier work
compound,measurement,value
C[C@]12CC[C@@H]3c4ccc(O)cc4CC[C@H]3[C@@H]1C[C@@H](O)[C@@H]2O [estriol],Increase in SHBG,no increase in SHBG
